Test results from ChEMBL document CHEMBL6121006, “Marine natural product-inspired discovery of novel BRD4 inhibitors with anti-inflammatory activity” (Eur J Med Chem, 2025).

Target: Bromodomain-containing protein 4 (Homo sapiens, UniProt O60885)
Experiment: Selectivity index, ratio of IC50 for human recombinant BRD4 BD1 (42 to 167 residues) extracted from Escherichia coli BL21 (DE3) to IC50 for human recombinant BRD4 BD2 (349 to 460 residues) extracted from Escherichia coli BL21 (DE3)

Compound | Ratio IC50
COc1ccc(/C=C/c2nc3cc(OC)cc(OC)c3c(=O)[nH]2)cc1 | 32
COc1cccc(/C=C/c2nc3cc(OC)cc(OC)c3c(=O)[nH]2)c1 | > 10
